Source: ChEMBL document CHEMBL1140694, “Identification of new functional inhibitors of acid sphingomyelinase using a structure-property-activity relation model” (J Med Chem, 2008)

Experiment: physchem

`Cc1cc(C(C)(C)C)cc(C)c1CC1=NCCN1` [XYLOMETAZOLINE] gave a pKa of 10.2.
